This passage reports Activity results from ChEMBL document CHEMBL4818995, “Dual nicotinamide phosphoribosyltransferase and epidermal growth factor receptor inhibitors for the treatment of cancer” (Eur J Med Chem, 2021).

The test system of the assay is NCI-H1975. Nature of the assay: Antitumor activity against human NCI-H1975 cells xenografted in BALB/c nude mouse assessed as reduction in tumor growth at 60 mg/kg, ig administered once daily for 3 weeks. To be noted: dose 60.0 mg/kg/day. It is filed as functional, organism-based.

SMILES strings stand for the structures. Calls of active or inactive are those of the source. The rule behind the calls is not given here.

`COc1cc2ncnc(Nc3ccc(F)c(Cl)c3)c2cc1OCCCN1CCOCC1`: the result was inactive.
